The target in the assay is Protein Wnt-3a (Homo sapiens, UniProt P56704).

By UniProt entry, the sequences of proteins in these tests, tags left out. Residues count along the entry.
UniProt P56704, 19-352 limits assumed: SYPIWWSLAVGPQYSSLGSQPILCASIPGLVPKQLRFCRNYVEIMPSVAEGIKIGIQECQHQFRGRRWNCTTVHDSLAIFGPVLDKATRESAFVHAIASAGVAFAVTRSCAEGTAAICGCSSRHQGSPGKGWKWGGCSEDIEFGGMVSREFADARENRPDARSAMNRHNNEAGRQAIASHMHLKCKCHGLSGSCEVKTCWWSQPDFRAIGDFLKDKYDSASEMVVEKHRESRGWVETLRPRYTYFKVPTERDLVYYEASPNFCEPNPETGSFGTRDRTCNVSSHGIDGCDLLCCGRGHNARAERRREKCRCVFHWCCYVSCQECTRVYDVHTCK

Broadly, the IC50 is the concentration that inhibits the measured activity by half.

In the case of `COc1ccc(NC(=O)c2ncc(-c3ccccc3)o2)cc1NC(=O)CN1CCOCC1`, half-maximal inhibition (IC50) was put at 2460 nM.
With `COc1ccc(C(=O)Nc2ccc(-c3ccccc3F)nc2)cc1NC(=O)CN1CC2CCC(C1)O2` the figure was 133 nM; with `O=C(CN1CCOCC1)Nc1cc(NC(=O)c2cc(-c3ccccc3)[nH]n2)ccc1OC(F)(F)F`, 72.5 nM.

These data come from ChEMBL document CHEMBL5725897, “Compounds” (2018).
